## Binding of CDR-mutated scFvs to a peptide of the spike HR2 region

All variants were tested on one target, the spike HR2 peptide PDVDLGDISGINAS (SARS-CoV-2).

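The parent was found by panning a naive human phage display library on the peptide. The variants were designed computationally from a first round of random CDR variants and then made and measured. Group labels follow the data file (Ctrl: baseline library sampled from a position-specific scoring matrix, with some repeated check sequences; En: ensemble of fine-tuned language models; GP: Gaussian process model; HC: hill climbing; Gen: genetic algorithm; Gibbs: Gibbs sampling; a sequence that several methods proposed may carry one label only). The assay is AlphaSeq: two haploid yeast populations carry antibody and antigen on their surface. Binding brings cells together so that they mate, and sequencing counts the barcode pairs among the diploids. A regression on co-assayed BCL2-family reference pairs converts the normalised counts of each replicate to an apparent Kd. There are six technical replicates.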

Each scFv is VH, a 15-residue (Gly4Ser)3 linker, VL, as in the parent Ab-14, and differs from it in the CDRs of the light chain only.
VH: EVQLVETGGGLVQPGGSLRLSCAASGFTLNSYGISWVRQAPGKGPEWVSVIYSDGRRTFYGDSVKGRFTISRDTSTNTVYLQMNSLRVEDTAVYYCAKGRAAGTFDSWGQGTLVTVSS
VL: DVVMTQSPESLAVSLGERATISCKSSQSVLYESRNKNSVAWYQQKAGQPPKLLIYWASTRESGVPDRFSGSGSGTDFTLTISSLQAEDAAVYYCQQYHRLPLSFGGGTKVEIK

Variants are written as CDR1, CDR2 and CDR3 of the light chain (limits as in the source). Parent: KSSQSVLYESRNKNSVA, WASTRES, QQYHRLPLS.
Values are log10 of the apparent Kd in nM; lower means stronger binding.
The mean shown is taken over the replicates in which the pair was detected.
"nd" marks a missing value. The strain was present, yet no cells mated with the target were sequenced in any replicate, which points to weak or no binding.
A sequence measured in both rounds can read differently, since the two assays cover different ranges.
In the paper, a design with two or fewer of six values counts as a poor binder.
As a blank, each scFv also met three strains without target: over all light chain designs, 4% of these pairings were detected, typically at 2.64 and seldom below 1.59.
Of ten entries with the parent sequence, four were seen in most replicates (averages 0.34 to 2.37), three in one and three in none, so single entries are noisy.

The variant MISQLYNMGQFAINSVA | QASQRNA | QQYDRLPLE [En_Gen] showed 1.09 (6 of 6 replicates).
The variant TISQMHSSFSQTINNVA | EVSTREK | QQYDRLPLA [En_Gen] showed 0.04 (6 of 6 replicates).
The variant KLSWSDLYESRNKNSVA | EASTRES | QQYHRLPLS [GP_Gen] showed -0.25 (6 of 6 replicates).
The variant KSSKSVLYESRNKNSVA | WASTRES | QQYHRLPLS [Ctrl] showed 2.86 (3 of 6 replicates).
The variant HLSQSVLMESRNKNSVA | NASTRLS | QQYHRLPLS [GP_Gen] showed -0.15 (6 of 6 replicates).
The variant KSSQSKLYESRNTNSVA | WASTRES | QQYHRLPLS [Ctrl] showed 2.06 (1 of 6 replicates).
The variant VLSASELYEDRMKNSVA | NASQRES | QQYHRLPLS [GP_Gibbs] showed 0.23 (6 of 6 replicates).
The variant QLYAVQDMTSKNKNSVA | EQSTREN | QQYDRLPLS [En_HC] showed 1.87 (5 of 6 replicates).
The variant KVSQSWQYGSRNKNSVA | NASQRES | QQYHRLPLS [GP_Gibbs] showed -0.33 (6 of 6 replicates).
The variant MLSMVADISSKNRNSVA | EMTTREK | QQYDRLPLI [En_Gen] showed 0.40 (3 of 6 replicates).
The variant QLGMHLKELSKVTNNVA | EMTTRLN | QQYFRLPLA [En_Gen] showed 0.25 (6 of 6 replicates).
The variant KVSMSVQYEARNKNSVA | EASTRED | QQYHRLPLS [GP_Gibbs] showed 0.23 (6 of 6 replicates).
The variant KVSEFMRGLMQKTDSIA | DNVTRVN | QQYDRLPLS [En_Gen] showed 0.78 (6 of 6 replicates).
The variant KLSGSVLMESRNKNSVA | EASTRES | QQYHRLPLS [GP_Gen] showed -0.24 (6 of 6 replicates).
The variant KLSQSVMYESRNKNSVA | NASTRMS | QQYHRLPLS [GP_Gen] showed -0.22 (6 of 6 replicates).
The variant KLEFSDLYESRNKNSVA | EASTRES | QQYHRLPLS [GP_Gibbs] showed 1.77 (6 of 6 replicates).
The variant KDSQSVEYESMNQNSVA | WASTRES | QQYHRLPLS [Ctrl] showed nd (0 of 6 replicates).
The variant KLVNFMNRGTHHTSNIA | DAANRID | QQYARLPLA [En_Gen] showed 0.22 (6 of 6 replicates).
The variant HSSPSVRYESRNKNSVA | NASTREE | QQYHRLPLS [GP_HC] showed nd (0 of 6 replicates).
The variant TISQSAQMESHNKNSVA | DLNLRGS | QQYDRLPLS [En_HC] showed 1.58 (6 of 6 replicates).
The variant KVSQSVLYEERNKNSVA | HASTRES | QQYHRLPLS [GP_Gen] showed 0.00 (6 of 6 replicates).
The variant KSSLSYLYESRNENSVA | EASTREQ | QQYHRLPLS [GP_HC] showed 0.45 (6 of 6 replicates).
The variant KVSMSVNYLQRNKNSVA | QASQRES | QQYHRLPLS [GP_Gibbs] showed -0.69 (6 of 6 replicates).
The variant MISQSFLIGMKAKNSVA | QTNTREQ | QQYDRLPLI [En_HC] showed 0.68 (6 of 6 replicates).
The variant MMSMGSLGGMRARNNVA | QEETREK | QQYHRLPLI [En_HC] showed 1.14 (3 of 6 replicates).
The variant KITHQMFTGMMQKSAMA | NGAMRVE | QFYSRLPLF [En_Gibbs] showed 0.06 (6 of 6 replicates).
The variant KSSISYLYESRNKNSVA | NASERES | QQYHRLPLS [GP_HC] showed 0.19 (6 of 6 replicates).
The variant KLSQSVLYESRNKNSVA | SASTRES | QDYHRLPLS [GP_Gen] showed -0.19 (6 of 6 replicates).
The variant KSSASGLYESRNKNSVA | EASTRES | QQYHRLPLS [GP_HC] showed 0.05 (6 of 6 replicates).
The variant KSSQSVLWEQRNKNSVA | WASTRES | QQYHRLPLS [Ctrl] showed 2.20 (1 of 6 replicates).
The variant KFEVSNLYESRNGNSVA | NASTRSS | QQYHRLPLS [GP_Gibbs] showed 2.09 (6 of 6 replicates).
The variant KLSQSWLYESRNKMSVA | NASTRES | QQYHRLPLS [GP_Gen] showed -0.06 (6 of 6 replicates).
The variant HASPSVLYESRNKNSVA | NASTRES | QQYHRLPLQ [GP_HC] showed 0.31 (6 of 6 replicates).
The variant KLSQSQLYESRNKNAVA | NASTRES | QQYHRLPLS [GP_Gen] showed -0.41 (6 of 6 replicates).
The variant RIQMQVTWPGNARQNVA | EIQTAID | QQYAHLPLS [En_Gibbs] showed 2.26 (4 of 6 replicates).
The variant KLSQSVLYESHQKNSVA | WASTRES | QQYHRLPLS [Ctrl] showed 1.58 (5 of 6 replicates).
The variant TISQSVLMTGLNRNSVA | QAEERLE | QQYHRLPLS [En_HC] showed 1.22 (6 of 6 replicates).
The variant KLGAMTAIESRNLNSVA | QMDTRES | QQYHRLPLS [En_HC] showed 0.08 (6 of 6 replicates).
The variant KLNVSYLFEQLEKNSIA | ENSTREK | QHYHRLPLS [En_HC] showed 3.10 (2 of 6 replicates).
The variant KLEQSQLYESRNKNNVA | SASHREH | QQYHRLPLS [GP_Gibbs] showed 0.12 (6 of 6 replicates).
The variant KLSQSVLYESRQKNSVA | EASQRES | QQYHRLPLS [GP_Gen] showed -0.05 (6 of 6 replicates).
The variant IVSQLMLWGYHAKNSIA | EAQTRLN | QQYDRLPLI [En_Gen] showed nd (0 of 6 replicates).
The variant KLSQSWLYEDRVKNSVA | GASTRES | QQYHRLPLS [GP_HC] showed 0.11 (6 of 6 replicates).
The variant KLSQSWLYLSRNMNAVA | EASQRLS | QQYHRLPLS [GP_Gibbs] showed -0.01 (6 of 6 replicates).
The variant KSSQSVYYESRNKNSVA | NASTRES | QQYHGLPLS [Ctrl] showed 2.48 (4 of 6 replicates).
The variant ALALTLHQVDSQMNNIA | QGMERES | QQYNRLPLG [En_Gibbs] showed 1.65 (6 of 6 replicates).
The variant SLAYTQHFGQKGGKAVA | EVQMRCQ | QQYFRLPLG [En_Gibbs] showed 3.19 (1 of 6 replicates).
The variant IISQVDAYMSRNKNSIA | DQSTRGS | QQYDRLPLS [En_HC] showed 0.95 (6 of 6 replicates).
The variant KSSESVLYQSRNKNSVA | WASTRES | QQYHRLPLS [Ctrl] showed 0.04 (6 of 6 replicates).
The variant KLQQSCLYESRNKNSVA | NASTRLS | QQYHRLPLS [GP_Gen] showed -0.11 (6 of 6 replicates).
The variant KLSMSMLYESRNKNSVA | DASTRES | QQYHRLPLS [GP_Gen] showed 0.03 (6 of 6 replicates).

The first 3 variants above that were never detected:

CDR-L1	CDR-L2	CDR-L3	group	mean log10 Kd (nM)	replicates with signal
KDSQSVEYESMNQNSVA	WASTRES	QQYHRLPLS	Ctrl	nd	0/6
HSSPSVRYESRNKNSVA	NASTREE	QQYHRLPLS	GP_HC	nd	0/6
IVSQLMLWGYHAKNSIA	EAQTRLN	QQYDRLPLI	En_Gen	nd	0/6

From the AlphaSeq antibody data of Li et al. 2023 (doi:10.1038/s41467-023-39022-2), copy in the FLAb collection.